Columns and labels:
[1] = Rat pharmacokinetic study; settings: SD rats
Excerpt: • SD rats: male, 180-250g, purchased from Beijing Vital River Laboratory Animal Technology Co., Ltd. • Reagents: DMSO (dimethyl sulfoxide), PEG-400 (polyethylene glycol 400), saline, heparin, acetonitrile, formic acid, and propranolol (internal standard) are all commercially available. Instrument: AB SCIEX QTRAP 5500+.
The compounds of Examples 1-49 of the present invention were weighed and dissolved in a DMSO-PEG-400-saline (5:60:35, v/v/v) system. Following intravenous or intragastric administration to rats, venous blood samples (200 µL) were collected into EDTA-K2 anticoagulant tubes at the following time points: 15 min, 30 min, 1 h, 2 h, 5 h, 7h, and 24 h (with an additional 5-min time point for the i.v. group). The samples were centrifuged at 12,000 rpm for 2 minutes, and the obtained plasma was stored at -80°C until analysis. A certain amount of the test sample was accurately weighed and dissolved in DMSO to 2 mg/mL as a stock solution. An appropriate amount of the stock solution of each test compound was accurately pipetted and diluted with acetonitrile to prepare a series of standard solutions. 10 µL of each of the above series of standard solutions was accurately pipetted, to which was added 90 µL of blank plasma, and vortexed to prepare plasma samples with plasma concentrations equivalent to 1, 3, 5, 10, 30, 100, 300, 1000, 3000 ng/mL. Duplicate samples were analyzed for each concentration to establish a standard curve. 30 µL aliquot of each plasma sample was used (samples from the 5, 15, and 30 min i.v. time points were diluted 5-fold prior to analysis). Then, 150 µL of acetonitrile containing the internal standard propranolol (50 ng/mL) was added. After vortexing, 100 µL of purified water was added, and the mixture was vortexed again, followed by centrifugation at 4000 rpm for 5 minutes. The supernatant was collected and analyzed by LC-MS.
The LC-MS analysis was performed under the following conditions: Chromatographic column: YMC Triart C18, 50×3.0mm, 2.1µm. Mobile phase: gradient elution with a mixture of water (containing 0.1% formic acid) and acetonitrile as described in the table below:
After the plasma concentration was determined by LC-MS, the pharmacokinetic parameters were calculated using WinNonlin 6.1 software with a non-compartmental model. Table 2 Pharmacokinetic results of the compounds of the present invention in rats

[2] = Pharmacokinetic study in cynomolgus monkeys; settings: Cynomolgus monkey, ig
Method: • Cynomolgus monkeys: male, 180-250g, purchased from Guangxi Grandforest Scientific Primate Company, Ltd. • Reagents: DMSO (dimethyl sulfoxide), PEG400, saline, heparin, acetonitrile, formic acid, propranolol (internal standard) are all commercially available. • Instrument: AB SCIEX 7500.
The compound was weighed and dissolved in a DMSO-PEG-400-saline (5:60:35, v/v/v) system. Following intragastric administration to cynomolgus monkeys, 200 µL of venous blood was collected into EDTA-K2 anticoagulant tubes at 30 min, 60 min, 90 min, 2 h, 3 h, 5 h, 8 h, and 24 h. The blood samples were centrifuged at 12,000 rpm for 2 min, and the plasma was collected and stored at -80°C for subsequent analysis. An appropriate amount of the test compound was accurately weighed and dissolved in DMSO to a concentration of 2 mg/mL as a stock solution. Appropriate volumes of the compound stock solution were accurately pipetted and diluted with acetonitrile to prepare a series of standard solutions. A series of standard solutions were prepared at concentrations equivalent to plasma concentrations of 0.3, 1, 3, 10, 30, 100, 300, 1000, and 3000 ng/mL by accurately pipetting 10 µL of each standard solution and adding it to 90 µL of blank plasma, followed by vortexing to mix. Quality control samples were prepared at plasma concentrations of 2.4, 120, and 2400 ng/mL. Duplicate samples were analyzed for each concentration , and the standard curve was established. Subsequently, 30 µL aliquot of plasma was taken, and 150 µL of acetonitrile solution containing the internal standard propranolol (50 ng/mL) was added. After vortexing to mix, 100 µL of purified water was added, and the mixture was vortexed again to mix. It was then centrifuged at 4000 rpm for 5 minutes, and the supernatant was collected for LC-MS analysis. The LC-MS detection conditions were as follows: Chromatographic column: YMC Triart C18, 50×3.0mm, 2.1µm. Mobile phase: gradient elution with a mixture of water (containing 0.1% formic acid) and acetonitrile as described in the table below:
After the plasma concentration was determined by LC-MS, the pharmacokinetic parameters were calculated using WinNonlin 6.1 software with a non-compartmental model, and the results are shown in Table 4. Table 4 Pharmacokinetic results of the compounds of the present invention in Cynomolgus monkey

AUClast ([1]; 1 mg/kg, i.v): 9650 ng·h/mL | Cmax ([1]; 1 mg/kg, i.v): 3360 ng/mL | T1/2 ([1]; 1 mg/kg, i.v): 3.06 h | AUClast ([1]; 5 mg/kg, p.o): 42600 ng·h/mL | Cmax ([1]; 5 mg/kg, p.o): 4620 ng/mL | T1/2 ([1]; 5 mg/kg, p.o): 2.57 h | AUClast ([2]; 0.05 mg/kg): 292 ng·h/mL | Cmax ([2]; 0.05 mg/kg): 33.8 ng/mL | T1/2 ([2]; 0.05 mg/kg): 6.39 h | AUClast ([2]; 20 mg/kg): 128500 ng·h/mL | Cmax ([2]; 20 mg/kg): 15000 ng/mL | T1/2 ([2]; 20 mg/kg): 5.63 h
Structure (SMILES): CCC(=O)N[C@@H]1CCCc2c(-c3ccc4c(C#N)nccc4c3)cncc21

Source: patent publication EP4834882A1, “ALDOSTERONE SYNTHETASE INHIBITOR, AND PREPARATION METHOD THEREFOR AND USE THEREOF” (dated 2026)
